# Laboratory results as given in PubChem BioAssay AID504357 (The Scripps Research Institute Molecular Screening Center, 2011).
# Protein sequences, listed by entry. Tags and fused reporters are not part of them.
# UniProt P35372, whole entry, looked up: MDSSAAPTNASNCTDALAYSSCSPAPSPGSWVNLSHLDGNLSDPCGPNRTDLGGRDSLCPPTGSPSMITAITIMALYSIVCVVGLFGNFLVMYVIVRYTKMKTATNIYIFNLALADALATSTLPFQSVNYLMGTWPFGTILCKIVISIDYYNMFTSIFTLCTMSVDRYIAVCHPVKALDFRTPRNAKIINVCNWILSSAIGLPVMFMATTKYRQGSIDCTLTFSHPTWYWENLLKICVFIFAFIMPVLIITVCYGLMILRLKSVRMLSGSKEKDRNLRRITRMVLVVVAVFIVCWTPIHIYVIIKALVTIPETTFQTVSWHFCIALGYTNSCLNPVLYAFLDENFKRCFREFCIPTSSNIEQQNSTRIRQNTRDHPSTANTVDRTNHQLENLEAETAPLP
# UniProt P41143, whole entry, looked up: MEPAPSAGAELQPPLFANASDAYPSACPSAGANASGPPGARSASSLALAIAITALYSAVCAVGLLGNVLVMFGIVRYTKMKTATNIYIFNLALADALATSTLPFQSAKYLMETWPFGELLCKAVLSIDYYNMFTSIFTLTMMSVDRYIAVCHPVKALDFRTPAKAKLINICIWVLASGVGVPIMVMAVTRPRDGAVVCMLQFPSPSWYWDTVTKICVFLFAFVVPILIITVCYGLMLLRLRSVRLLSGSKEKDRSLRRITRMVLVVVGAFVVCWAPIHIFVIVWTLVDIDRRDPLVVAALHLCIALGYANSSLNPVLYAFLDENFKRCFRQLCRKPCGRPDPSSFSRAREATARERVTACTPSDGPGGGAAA
# This is a selection; strong and weak results do not stand in their true shares. Activity calls are given as the source filed them. Cut-off read from the data, not from the text of the source: active = inhibition above about 22% (passing the limit was not always enough); inactive = the rest.
# Target: Mu-type opioid receptor (Homo sapiens) + Delta-type opioid receptor (Homo sapiens) (UniProt P35372+P41143)
# Assay: OPRM1-OPRD1 heterodimer inverse agonism – cell-based, luminescence, primary screen (AID 504357);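 note: 0% = cells with DMSO and 100% = wells without cells with DMSO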
# Settings: cell-based MOR-DOR heterodimer luminescence, at 9.3 µM, active compounds read high
row,Compound,inhibition
1,CCC(=O)Nc1nc2ccccc2n1CCN(C)C,inactive: 6.95%
2,Cc1ccc2c(c1)C1CN(C)CCC1N2Sc1ccccc1[N+](=O)[O-] (stereo not given),inactive: -4.13%
3,CN(C)C(=O)CSc1nc2ccccc2n1CC(=O)N1CCN(c2ccccc2)CC1,inactive: 5.2%
4,CN(C)CCn1c(N)nc2ccccc21,inactive: -5.42%
5,C[C@H](O)[C@@H]1C(=O)N2CCc3ccc(-c4ccccc4)cc3[C@@H]2C[C@@H]1N(C)C(=O)c1ccc(C#N)cc1,inactive: 6.06%
6,O=C(CCNC(=O)N1CCn2c1nc1ccccc12)NCc1ccccc1Cl,inactive: 17%
7,C[C@@H]1C=CCP(=O)(Oc2ccccc2)O1 (stereo not given in full),inactive: 5.66%
8,Cc1ccccc1CN(C)C(=O)COC(=O)C(O)(c1ccccc1)c1ccccc1,inactive: 5.57%
9,CC(C)(C)NC(=O)Cn1c(SCC(=O)Nc2nccs2)nc2ccccc21,inactive: 12.3%
10,CCOc1ccc(S(=O)(=O)N(C)c2ccc(OCC(=O)N3c4ccc(C)cc4C4CN(C)CCC43)cc2)cc1 (stereo not given),inactive: 4.39%
11,Cc1ccc2c(c1)C1CN(C)CCC1N2C(=O)Nc1cccc(Cl)c1 (stereo not given),inactive: -29%
12,Cc1ccccc1Oc1ccc2c(c1)[C@@H]1C[C@H](N(C)C(=O)Nc3cc(Cl)cc(Cl)c3)[C@H]([C@H](C)O)C(=O)N1CC2,inactive: 14.3%
13,COC(=O)C1(C)COP(=O)(NCc2ccccc2)OC1 (stereo not given),inactive: 16.6%
14,CC(NC(=O)CCCCCNC(=O)N1CCn2c1nc1ccccc12)c1ccccc1 (stereo not given),inactive: 3.81%
15,O=C(Cn1cnc2ccccc21)N/N=C/C(Br)=C/c1ccccc1,inactive: -14.1%
16,Cn1c(=O)c2c(ncn2CC(=O)N/N=C/C(Cl)=C/c2ccccc2)n(C)c1=O,inactive: 5.12%
17,COC(=O)c1ccccc1NC(=O)Cn1c(-c2nonc2N)nc2ccccc21,inactive: 15.2%
18,Cc1ccc2c(c1)C1CN(C)CCC1N2C(=O)COc1ccc(N(C)S(=O)(=O)c2cccs2)cc1 (stereo not given),inactive: 2.25%
19,O=C(CCCCCNC(=O)N1CCn2c1nc1ccccc12)N[C@H](C(=O)O)c1ccccc1,inactive: 17.3%
20,CC(=O)c1ccc(N2CC2c2ccncc2)cc1 (stereo not given),inactive: 21%
21,Cc1ccc2c(c1)C1CN(C)CCC1N2S(=O)(=O)c1cccc(F)c1 (stereo not given),inactive: 19.3%
22,N#C/C(=C\c1ccc(N(CCBr)CCBr)cc1)C(N)=O,inactive: 15.4%
23,O=C(Cn1c(SCC(=O)N2CCCc3ccccc32)nc2ccccc21)N1CCCC1,inactive: 14.6%

row,Compound,inhibition
1,Cc1ccc(-c2csc(NCCn3c(C(F)(F)F)nc4ccccc43)n2)cc1,inactive: 0.14%
2,Cn1c(=O)c2c(nc(CN3CCN(C(=O)c4ccco4)CC3)n2CC(N)=O)n(C)c1=O,inactive: 3.77%
3,O=C(Nc1nc2ccccc2n1CCN1CCCCC1)C1CCCCC1,inactive: 11.2%
4,CC1Cc2ccccc2N1C(=O)Cn1cnc2c1c(=O)n(C)c(=O)n2C (stereo not given),inactive: 12.5%
5,CC(NC(=O)CCNC(=O)N1CCn2c1nc1ccccc12)c1ccccc1 (stereo not given),inactive: 8.05%
6,CC(O)CNc1nc2ccccc2n1CC(=O)NCCc1ccc(Cl)cc1 (stereo not given),inactive: 8.56%
7,O=S(=O)(c1ccccc1)c1nnn2c1nc(NC1CCN(Cc3ccccc3)CC1)c1ccccc12,inactive: 5.39%
8,O=C(Nc1nc2ccccc2n1CCN1CCCCC1)c1ccco1,inactive: -0.97%
9,O=C(Cn1c(-c2cscn2)nc2ccccc21)Nc1ccccc1F,inactive: 13.9%
10,CCC(=O)Nc1cccc(C(=O)/C=C/c2cc(Br)ccc2OC)c1,inactive: 1.48%
11,COc1ccccc1C(=O)Nc1ccc2c(c1)nc1n2CCN(C2CCCCC2)C1,inactive: 13.3%
12,O=C(Cn1cnc2c(NCc3ccccc3)ncnc21)N1CCN(c2ccccn2)CC1,inactive: 14.5%
13,Cc1ccc(CN2C(=O)c3ccccc3NC23CCN(Cc2ccccc2)CC3)cc1,inactive: -11.9%
14,CCCS(=O)(=O)N1CCn2c(nc3ccccc32)C1,inactive: 3.7%
15,CC(=O)NC(C)c1nc2ccccc2n1CC(=O)N1C(C)CCCC1C (stereo not given),inactive: 14.4%
16,O=C1NCN(c2ccccc2)C12CCNCC2,inactive: -4.3%
17,COc1ccc(NS(=O)(=O)c2cc(NC(=O)Cn3cnc4c3c(=O)n(C)c(=O)n4C)ccc2C)cc1,inactive: 11.9%
18,Cn1c(=O)c2c(ncn2CCNC2=NCCCCC2)n(C)c1=O,inactive: 10.7%
19,CCOC(=O)CSc1nc2ccccc2n1CC(=O)N(C(C)C)C(C)C,inactive: 17.5%
20,O=S(=O)(c1ccccc1)N1CCn2c(nc3ccccc32)C1,inactive: -1.59%
21,Cn1c(=O)c2c(ncn2CC(=O)N2CCN(C(=O)c3ccco3)CC2)n(C)c1=O,inactive: 20.3%
22,CC(C)NC(=O)Cn1c(SCC(=O)N2c3ccccc3CC2C)nc2ccccc21 (stereo not given),inactive: 10.6%
23,O=P1(N(CCCl)CCCl)OCCC2CCCCN21 (stereo not given),inactive: 8.73%

row,Compound,inhibition
1,O=C(c1ccc(Cl)cc1)N1CCn2c1nc1ccccc12,inactive: 10.7%
2,O=C(Cn1cnc2c(NCc3ccccc3)ncnc21)NCc1ccc2[nH]ccc2c1,inactive: 3.46%
3,Cc1ccc(Cn2c(=O)c3c(nc4n3CCN4Cc3ccco3)n(C)c2=O)cc1,inactive: 0.58%
4,Cc1nc2cc(C(F)(F)F)ccc2n1CCNc1nc(-c2cc(Cl)c(N)c(Cl)c2)cs1,inactive: 5.7%
5,CC(C)(C)C(=O)N1CCn2c1nc1ccccc12,inactive: 17%
6,O=C(Cn1c(-c2ccco2)nc2ccccc21)N1CCCCC1,inactive: 10%
7,Cn1c(=O)c2ncn(CC(=O)Nc3ccc(N4CCOCC4)cc3)c2n(C)c1=O,inactive: -2.43%
8,CCOC(=O)C1CCCN(C(=O)Cn2cnc3c2c(=O)n(C)c(=O)n3C)C1 (stereo not given),inactive: 6.75%
9,O=C(C1CCCN1S(=O)(=O)c1cccc2cccnc12)N1CCn2c1nc1ccccc12 (stereo not given),inactive: -16.8%
10,CC(c1ccccc1)N1CCn2c(nc3cc(NS(C)(=O)=O)ccc32)C1 (stereo not given),inactive: 17.1%
11,Cc1nc2ccccc2n1C1CC(=O)N(Cc2ccccc2)C1=O (stereo not given),inactive: -11%
12,c1ccc(CN2CCN(CCN3CCn4c3nc3ccccc34)CC2)cc1,inactive: 8.69%
13,S=C(Nc1ccccc1)N1CCn2c1nc1ccccc12,inactive: 9.51%
14,CCNC(=S)/N=C(\N)N[N+](=O)[O-],inactive: 6.41%
15,COc1cccc(NC(=O)[C@H](C)NC(=O)N2CCn3c2nc2ccccc23)c1,inactive: 13.6%
16,O=C(NC1CCS(=O)(=O)C1)NP(=S)(Oc1ccccc1)Oc1ccccc1 (stereo not given),inactive: -9.35%
17,COc1cc(/C=N/NC(=O)Cn2cnc3c2c(=O)n(C)c(=O)n3C)ccc1O,inactive: 0.91%
18,CCSc1nc2ccccc2n1CC(=O)N1CCOCC1,inactive: -3.44%
19,O=c1c2cc([N+](=O)[O-])ccc2[nH]c2c([N+](=O)[O-])cc([N+](=O)[O-])cc12,inactive: -10.6%
20,CN(C)CCn1cnc2ccccc21,inactive: 11.9%
21,CN(C)C(=O)Oc1noc2ccccc12,inactive: 10.4%
22,Cc1ccc(OCCNC(=O)Cn2cnc3c(=O)n(C)c(=O)n(C)c32)cc1C,inactive: 4.85%
23,CC(NC(=O)COC(=O)C(O)(c1ccccc1)c1ccccc1)c1ccccc1 (stereo not given),inactive: -2.97%

row,Compound,inhibition
1,CCc1cccc(C)c1N(C(=O)Cn1c(CO)nc2ccccc21)C(C)COC (stereo not given),inactive: 6.54%
2,CC1CCCN(C(=O)Cn2cnc3c2c(=O)n(C)c(=O)n3C)C1 (stereo not given),inactive: 17.8%
3,CCOC(=O)C1=C(Cn2cnc3ccccc32)NC(=O)NC1c1ccc(Cl)cc1 (stereo not given),inactive: 2.42%
4,Cc1ccccc1OP(=O)(Nc1ccccn1)Oc1ccccc1C,inactive: 1.12%
5,Cc1ccc(CNC(=O)Cn2cnc3c(NC(=O)OCc4ccccc4)ncnc32)o1,inactive: 14.8%
6,C[C@H](O)[C@@H]1C(=O)N2CCc3ccc(-c4cccc(F)c4)cc3[C@@H]2C[C@@H]1N(C)C(=O)Nc1ccccc1,inactive: -8.72%
7,COCCN1CCn2c(nc3cc(Nc4nnc(C)c5ccccc45)ccc32)C1,inactive: 16.7%
8,Cn1c(=O)c2c(ncn2CC(=O)N2CCN(c3ccccc3)CC2)n(C)c1=O,inactive: 12.1%
9,COCCNC(=O)Cn1c(=O)n(C)c2ccccc21,inactive: 6.74%
10,CCC(=O)N1C2C3N(C(=O)CC)C1C1N(C(=O)CC)C(C(N1C(=O)CC)N3C(=O)CC)N2C(=O)CC,inactive: -6.44%
11,CC(/C=N\NC(=O)Cn1c(C)nc2ccccc21)=C\c1ccccc1,inactive: -2.47%
12,CCCC(=O)Nc1ccc2c(c1)nc1n2CCN(CCOC)C1,inactive: 19.7%
13,Cc1ccc(C)c(Cn2c(=O)c3c(nc4n3CCN4Cc3ccco3)n(C)c2=O)c1,inactive: 16.3%
14,Cc1ccc2c(c1)C1CN(C)CCC1N2C(=S)NC(=O)c1ccc(Cl)cc1Cl (stereo not given),inactive: 18.8%
15,Clc1ccc(N2CCN(Cc3c[nH]c4ncccc34)CC2)cc1,inactive: -7.35%
16,O=C(Cn1c(=O)n(CC(=O)NCc2ccccc2)c2ccccc21)NCc1ccccc1,inactive: 3.12%
17,Cc1ccc2c(c1)C1CN(C)CCC1N2S(=O)(=O)c1ccccc1 (stereo not given),inactive: -0.51%
18,CN1CCC(N(C)c2ccc(C(N)=O)cc2[N+](=O)[O-])CC1,inactive: 3.75%
19,CC(C)[C@H](NC(=O)N1CCn2c1nc1ccccc12)C(=O)NCCc1ccccc1,inactive: 7.94%
20,O=C1CC(N2CCC(n3c(=O)[nH]c4ccccc43)CC2)C(=O)N1Cc1ccccc1 (stereo not given),inactive: 7.73%
21,O=C(CCCCCNC(=O)N1CCn2c1nc1ccccc12)NCc1ccc(F)cc1,inactive: 6.3%
